# Values quoted from earlier work in publication PMC8477420 (ChemMedChem, 2020).
# Chains of the proteins cited; added tags and fusions are not shown.
# UniProt Q00987, whole entry: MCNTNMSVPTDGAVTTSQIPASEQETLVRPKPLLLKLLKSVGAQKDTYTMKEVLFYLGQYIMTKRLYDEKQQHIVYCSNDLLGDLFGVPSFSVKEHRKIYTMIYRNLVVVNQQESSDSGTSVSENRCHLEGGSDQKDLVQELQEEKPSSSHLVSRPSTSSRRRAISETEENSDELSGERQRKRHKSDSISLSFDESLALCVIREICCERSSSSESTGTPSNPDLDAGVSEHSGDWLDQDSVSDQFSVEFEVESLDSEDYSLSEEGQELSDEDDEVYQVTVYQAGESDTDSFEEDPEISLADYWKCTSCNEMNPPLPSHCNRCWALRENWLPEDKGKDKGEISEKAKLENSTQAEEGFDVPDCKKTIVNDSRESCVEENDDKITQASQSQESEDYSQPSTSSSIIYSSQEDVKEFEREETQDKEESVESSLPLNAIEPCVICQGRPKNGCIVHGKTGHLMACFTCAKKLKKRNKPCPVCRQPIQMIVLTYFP
# Molecular target: HDM2 (Homo sapiens, UniProt Q00987)
smiles,measurement,value
COc1ccc(C2=N[C@@H](c3ccc(Cl)cc3)[C@@H](c3ccc(Cl)cc3)N2C(=O)N2CCNC(=O)C2)c(OC(C)C)c1 [Nutlin-3a],inhibition of HDM2,nanomolar inhibitor
